Values of other authors, collected in patent US9061070B2, “Treating stroke and other diseases without inhibiting N-type calcium channels” (NoNO, Inc., priority 2007, dated 2015).
This is a selection: effects in other tests are not listed, and their absence says nothing.

Settings: cited from earlier work

CCC(=O)N(c1ccccc1)C1(C(=O)OC)CCN(CCC(=O)OC)CC1
halflife: 3.5 min
